A short description of the data set: Clinical trial: adverse events, discontinuations, deaths, malignancies. It counts as in vivo, human. The following applies: all three treatment groups. The text has this: Treatment experienced HIV-1 patients infected with a CXCR4 using viral population were selected according to the following protocol and the first group with optimised background therapy (OBT) alone was compared against groups on OBT plus maraviroc once a day and OBT plus maraviroc twice a day.
The eligible patients were randomised into three groups based on the drug regimens they received.
Group 1: dptimised background therapy (OBT) (3-6 antiretroviral drugs [not counting low dose retonavir] of which at least one is active and no more than one is an NNRTI) plus maraviroc 150 mg po taken once daily (QD).
Group 2: optimised background therapy (as above) plus maraviroc 150 mg po taken twice daily (BID).
Group 3: optimised background therapy (as above) plus placebo.

On to “(N-{(1S)-3-[3-isopropyl-5-methyl-4H-1,2,4-triazole-4-yl]-exo-8-azabicyclo[3.2.1]oct-8-yl}-1-phenylpropyl)-4,4-difluorocyclohexanecarboxamide [maraviroc]”, for which the “cases of lymphoma or adenocarcinoma” value was “no cases”.
